Assay results: PubChem BioAssay AID1963576 (National Center for Advancing Translational Sciences (NCATS), 2024)
The entries are a selection whose mix differs from that of the whole data set. Inconclusive results are not listed. Activity calls are given as the source filed them. Calls come from the whole dose curve; as a rule, active = well fitted inhibition curve with a large enough effect; inconclusive = small, poorly fitted or top-dose-only effect; inactive = no such curve, though single readings can be large or run the other way.

assay: Primary qHTS assay for Inhibitors of ovarian cancer metastasis using an organotypic tumor microenvironment (TME) model.;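 note: plate controls were DMSO wells for no effect and tomatine positive control wells for full effect; nearly all actives have a fitted effect of over 65% in size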; details: SKOV3ip1-GFP adhesion/invasion on 3D omental model, fluorescence; at 45.8 µM (top of the series)
Text: PI: Ernst Lengyel MD., Ph.D. Department of Obstetrics and Gynecology, Section of Gynecologic Oncology University of Chicago Medicine, Chicago, Illinois. The tumor microenvironment (TME) is a key determinant of metastatic efficiency. We performed a quantitative high-throughput screen (qHTS) of diverse medicinal chemistry tractable scaffolds (44,420 compounds) and pharmacologically active small molecules (386 compounds) using a layered organotypic, robust assay representing the ovarian cancer metastatic TME. This 3D model contains primary human mesothelial cells, fibroblasts, and extracellular matrix, to which fluorescently labeled ovarian cancer cells are added. Initially, 100 compounds inhibiting ovarian cancer adhesion/invasion to the 3D model in a dose-dependent manner were identified. […]
PROTOCOL TABLE (as described by Inglese J, Shamu CE and Guy RK. 2007) SEQUENCE No. (e.g., 1, 2, 3, etc.); […] […] 11; Detection; Fluorescence, excitation filter 488 nm, emission filter 509 nm. […] The number of GFP-labeled cells analyzed using a fluorescent cytometer TTP LabTech Acumen eX3 using 488 nm excitation filter and 509 nm emission filter. […] Yasgar A, Shinn P, Jadhav A, Auld DS, Michael S, Zheng W, Austin CP, Inglese J and Simeonov A, Compound Management for Quantitative High-Throughput Screening. […]

Row | Structure (SMILES) | activity change, negative = inhibition
1 | CN(CCCl)CCCl | inactive: 3.55%
